For 32 compounds, Kd results are on record in patent publication US11691963B2, “6-heteroaryloxy benzimidazoles and azabenzimidazoles as JAK2 inhibitors” (Ajax Therapeutics, Inc., priority 2020, dated 2023).

Protein sequences, listed by entry. Tags and fused reporters are not part of them. Residues count along the entry.
UniProt O60674, 849-1124 Y1007F/Y1008F: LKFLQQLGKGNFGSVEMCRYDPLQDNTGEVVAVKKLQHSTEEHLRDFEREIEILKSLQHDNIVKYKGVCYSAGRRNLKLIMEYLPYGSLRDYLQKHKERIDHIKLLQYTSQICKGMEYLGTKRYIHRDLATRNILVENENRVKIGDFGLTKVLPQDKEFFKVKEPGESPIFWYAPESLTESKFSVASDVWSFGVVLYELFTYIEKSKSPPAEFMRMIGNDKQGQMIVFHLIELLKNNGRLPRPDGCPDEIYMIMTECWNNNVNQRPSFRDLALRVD

Assay [1] has as its target T1, JAK2 (JH1domain-catalytic, Y1007F,Y1008F) kinase (Homo sapiens (Human), UniProt O60674, Y1007F/Y1008F). In words: biochemical.
Assay [2] concerns the target T1, JAK2 (JH1domain-catalytic, Y1007F,Y1008F) kinase. As to conditions: read-out: JAK2 Kd.
The mark [3] stands for this setting: JAK2 JH1 domain-catalytic, Y1007F,Y1008F, qPCR readout.

Each structure is given as a SMILES string. Like-named read-outs stand apart in the source and are kept apart here.

As to `CC(=O)Nc1cc(Oc2ccc3nc(Nc4cc(C5CC5)cn(C[C@H]5CC[C@H]5O)c4=O)n(C)c3c2)ccn1` (single isomer, unassigned) [Example I-77-a], the Kd in assay [1] was less than 0.01 µM.

With `CC(=O)Nc1cc(Oc2ccc3nc(Nc4ccc(Cc5cn[nH]c5)c(C(F)(F)F)c4)n(C)c3c2)ccn1` [Example I-10, N-(4-((2-((4-((1H-pyrazol-4-yl)methyl)-3-(trifluoromethyl)phenyl)amino)-1-methyl-1H-benzo[d]imidazol-6-yl)oxy)pyridin-2-yl)acetamide], in assay [1], the Kd fell in the range of 0.05 to 1 µM. Same read-out and setting: then `CC(=O)Nc1cc(Oc2ccc3nc(Oc4cc(C5CC5)cn(C)c4=O)n(C)c3c2)ccn1` [Example I-89, N-(4-((2-((5-cyclopropyl-1-methyl-2-oxo-1,2-dihydropyridin-3-yl)oxy)-1-methyl-1H-benzo[d]imidazol-6-yl)oxy)pyridin-2-yl)acetamide], with 0.01 to 0.05 µM; and `COc1c(Oc2ccnc(NC(=O)C3CC3)c2)cnc2nc(Nc3cc(C4CC4)cn(C)c3=O)n(C)c12` [Example I-191, N-(4-((2-((5-cyclopropyl-1-methyl-2-oxo-1,2-dihydropyridin-3-yl)amino)-7-methoxy-1-methyl-1H-imidazo[4,5-b]pyridin-6-yl)oxy)pyridin-2-yl)cyclopropanecarboxamide], with less than 0.01 µM. The same measure, in the same setting: then `Cn1c(Nc2cc(C(C)(C)C)n(C[C@H]3COCCO3)n2)nc2ncc(Oc3ccnc(NC(=O)C4CC4)c3)cc21` (single isomer, unassigned) [Example I-135-a], with less than 0.01 µM. In turn, `CC(=O)Nc1cc(Oc2ccc3nc(Nc4cc(C(F)(F)F)n(CC5CCOCC5)n4)n(C)c3c2)ccn1` [Example I-33, N-(4-((1-methyl-2-((1-((tetrahydro-2H-pyran-4-yl)methyl)-5-(trifluoromethyl)-1H-pyrazol-3-yl)amino)-1H-benzo[d]imidazol-6-yl)oxy)pyridin-2-yl)acetamide] gave a dissociation constant (Kd) in assay [1] of 0.05 to 1 µM. `CC(=O)Nc1cc(Oc2ccc3nc(Nc4cc(C(C)(C)C)nn4[C@H]4CCOC4)n(C)c3c2)ccn1` [Example I-19, (S)—N-(4-((2-((3-(tert-butyl)-1-(tetrahydrofuran-3-yl)-1H-pyrazol-5-yl)amino)-1-methyl-1H-benzo[d]imidazol-6-yl)oxy)pyridin-2-yl)acetamide] returned a Kd in assay [1] of 0.05 to 1 µM. Still for that read-out and setting: in the case of `CC(=O)Nc1cc(Oc2cnc3nc(Nc4cc(C(C)(C)C)n([C@H]5CCOC5(C)C)n4)n(C)c3c2)ccn1` (single isomer, unassigned) [Example I-175-b] it was 0.05 to 1 µM; in that of `CC(=O)Nc1cc(Oc2cnc3nc(Nc4ccc(CN5CCOCC5)c(C(F)(F)F)c4)n(C)c3c2Cl)ccn1` [Example I-205, N-(4-((7-chloro-1-methyl-2-((4-(morpholinomethyl)-3-(trifluoromethyl)phenyl)amino)-1H-imidazo[4,5-b]pyridin-6-yl)oxy)pyridin-2-yl)acetamide], 0.01 to 0.05 µM. On the same count and under the same terms, then `CC(=O)Nc1cc(Oc2ccc3nc(Nc4cc(C5CC5)nn(C[C@H]5COC(C)(C)C5)c4=O)n(C)c3c2)ccn1` (single isomer, unassigned) [Example I-87-b], with 0.05 to 1 µM; and `CC(=O)Nc1cc(Oc2cnc3nc(Oc4cc(C5CC5)cn(C)c4=O)n(C)c3c2)ccn1` [Example I-96, N-(4-((2-((5-cyclopropyl-1-methyl-2-oxo-1,2-dihydropyridin-3-yl)oxy)-1-methyl-1H-imidazo[4,5-b]pyridin-6-yl)oxy)pyridin-2-yl)acetamide], with 0.01 to 0.05 µM; and `COCc1c(OC)cc(Nc2nc3ccc(Oc4ccnc(NC(C)=O)c4)cc3n2C)cc1C(F)(F)F` [Example I-11, N-(4-((2-((3-methoxy-4-(methoxymethyl)-5-(trifluoromethyl)phenyl)amino)-1-methyl-1H-benzo[d]imidazol-6-yl)oxy)pyridin-2-yl)acetamide], with 0.01 to 0.05 µM. On the same count and under the same terms, then `Cn1c(Nc2cc(C(C)(C)C)n([C@@H]3CCN(CCF)C3)n2)nc2ncc(Oc3ccnc(NC(=O)C4CC4)c3)cc21` [Example I-180, (R)—N-(4-((2-((5-(tert-butyl)-1-(1-(2-fluoroethyl)pyrrolidin-3-yl)-1H-pyrazol-3-yl)amino)-1-methyl-1H-imidazo[4,5-b]pyridin-6-yl)oxy)pyridin-2-yl)cyclopropanecarboxamide], with 0.01 to 0.05 µM; and `CC(=O)Nc1cc(Oc2ccc3nc(Oc4cc(-n5cccn5)cn(C(C)C)c4=O)n(C)c3n2)ccn1` [Example I-93, N-(4-((2-((1-isopropyl-2-oxo-5-(1H-pyrazol-1-yl)-1,2-dihydropyridin-3-yl)oxy)-3-methyl-3H-imidazo[4,5-b]pyridin-5-yl)oxy)pyridin-2-yl)acetamide], with 0.01 to 0.05 µM; and `COc1c(Oc2ccnc(NC(C)=O)c2)cnc2nc(Nc3nc([C@@H]4CCOC4)c(C(C)(C)C)s3)n(C)c12` (single isomer, unassigned) [Example I-195-b], with less than 0.01 µM. In turn, `CC(=O)Nc1cc(Oc2cnc3nc(Nc4cc(C(C)(C)C)n(C[C@@H]5COCCO5)n4)n(C)c3c2C)ccn1` (single isomer, unassigned) [Example I-129-b] showed a Kd in assay [1] of less than 0.01 µM. Same read-out and setting: in the case of `CNC(=O)c1cc(Oc2ccc3nc(Nc4cc(C(C)(C)C)on4)n(C)c3c2)ccn1` [Example I-16, 4-((2-((5-(tert-butyl)isoxazol-3-yl)amino)-1-methyl-1H-benzo[d]imidazol-6-yl)oxy)-N-methylpicolinamide] it was 0.05 to 1 µM; in that of `CC(=O)Nc1cc(Oc2cc(C)c3nc(Nc4cc(C5CC5)cn(C)c4=O)n(C)c3n2)ccn1` [Example I-64, N-(4-((2-((5-cyclopropyl-1-methyl-2-oxo-1,2-dihydropyridin-3-yl)amino)-3,7-dimethyl-3H-imidazo[4,5-b]pyridin-5-yl)oxy)pyridin-2-yl)acetamide], 0.01 to 0.05 µM; in that of `CNC(=O)c1cc(Oc2cnc3nc(Nc4cc(C(C)(C)C)n([C@@H]5CCOC5)n4)n(C)c3c2)ccn1` [Example I-105, (R)-4-((2-((5-(tert-butyl)-1-(tetrahydrofuran-3-yl)-1H-pyrazol-3-yl)amino)-1-methyl-1H-imidazo[4,5-b]pyridin-6-yl)oxy)-N-methylpicolinamide], 0.05 to 1 µM. In assay [1], `CO[C@@H]1CCOC[C@H]1n1cc(C(F)(F)F)cc(Nc2nc3ccc(Oc4ccnc(NC(C)=O)c4)cc3n2C)c1=O` (single isomer, unassigned) [Example I-59-a] showed a dissociation constant Kd of 0.01 to 0.05 µM. For `CC(=O)Nc1cc(Oc2ccc3nc(Nc4cc(C(F)(F)F)cn(C[C@H]5COCCO5)c4=O)n(C)c3c2)ccn1` (single isomer, unassigned) [Example I-58-b], in assay [1], the dissociation constant (Kd) was in the range of 0.05 to 1 µM. The same measure, in the same setting: then `CC(=O)Nc1cc(Oc2cnc3nc(Nc4cc(C(C)(C)C)n(C[C@H]5CCN(C)CC5(F)F)n4)n(C)c3c2)ccn1` (single isomer, unassigned) [Example I-148-a], with 1 to 5 µM; and `CC(=O)Nc1cc(Oc2cnc3nc(Nc4cc(C(C)(C)C)n(C[C@H]5CN(C)CCO5)n4)n(C)c3c2)ccn1` [Example I-143], with 0.01 to 0.05 µM. On the same count and under the same terms, then `CC(=O)Nc1cc(Oc2ccc3nc(Nc4ccc(Cl)c(C(F)(F)F)c4)n(C)c3c2C)ccn1` [Example I-5, N-(4-((2-((4-chloro-3-(trifluoromethyl)phenyl)amino)-1,7-dimethyl-1H-benzo[d]imidazol-6-yl)oxy)pyridin-2-yl)acetamide], with 0.01 to 0.05 µM. In assay [1], `Cn1c(Nc2cc(C(C)(C)C)on2)nc2ccc(Oc3ccnc(NC(=O)[C@H]4CC4(F)F)c3)cc21` (single isomer, unassigned) [Example I-50-a] showed a dissociation constant Kd of 0.05 to 1 µM. On the same count and under the same terms, then `CC(=O)Nc1cc(Oc2ccc3nc(Oc4cc(C5CC5)cn(C)c4=O)n(C)c3n2)ccn1` [Example I-95, N-(4-((2-((5-cyclopropyl-1-methyl-2-oxo-1,2-dihydropyridin-3-yl)oxy)-3-methyl-3H-imidazo[4,5-b]pyridin-5-yl)oxy)pyridin-2-yl)acetamide], with 0.05 to 1 µM; and `CC(=O)Nc1cc(Oc2ccc3nc(Nc4cc(C5CC5)c(=O)n(C5CCOCC5)n4)n(C)c3c2)ccn1` [Example I-88, N-(4-((2-((5-cyclopropyl-6-oxo-1-(tetrahydro-2H-pyran-4-yl)-1,6-dihydropyridazin-3-yl)amino)-1-methyl-1H-benzo[d]imidazol-6-yl)oxy)pyridin-2-yl)acetamide], with 1 to 5 µM. For `CC(=O)Nc1cc(Oc2ccc3nc(Oc4cccn(C)c4=O)n(C)c3c2)ccn1` [Example I-91, N-(4-((1-methyl-2-((1-methyl-2-oxo-1,2-dihydropyridin-3-yl)oxy)-1H-benzo[d]imidazol-6-yl)oxy)pyridin-2-yl)acetamide], in assay [1], the Kd was 1 to 5 µM. Turning to `CC(=O)Nc1cc(Oc2ccc3nc(Nc4cc5n(n4)CCCC5(C)C)n(C)c3c2)ccn1` [Example I-40, N-(4-((2-((4,4-dimethyl-4,5,6,7-tetrahydropyrazolo[1,5-c]pyridin-2-yl)amino)-1-methyl-1H-benzo[d]imidazol-6-yl)oxy)pyridin-2-yl)acetamide], in assay [2], the Kd is less than 0.01 µM. For `Cn1c(Nc2cc(C(C)(C)C)n(C[C@@H]3COCCO3)n2)nc2ncc(Oc3ccnc(NC(=O)C4CC4)c3)cc21` (single isomer, unassigned) [Example I-135-b], the Kd in assay [2] (setting [3]) lay in the range of 0.01 to 0.05 µM. Consider `CC(=O)Nc1cc(Oc2ccc3nc(Oc4cc(C5CC5)cn(C(C)C)c4=O)n(C)c3c2)ccn1` [Example I-90, N-(4-((2-((5-cyclopropyl-1-isopropyl-2-oxo-1,2-dihydropyridin-3-yl)oxy)-1-methyl-1H-benzo[d]imidazol-6-yl)oxy)pyridin-2-yl)acetamide], for which the dissociation constant Kd in assay [2] was less than 0.01 µM. In the case of `COc1c(Oc2ccnc(NC(C)=O)c2)cnc2nc(Nc3cc(C(C)(C)C)n([C@@H]4CN(C)CC4(F)F)n3)n(C)c12` (single isomer, unassigned) [Example I-172-a], the equilibrium dissociation constant (Kd) in assay [2] (setting [3]) is less than 0.01 µM.

One may read the Kd as the equilibrium constant for the complex coming apart.
